# From PubChem BioAssay AID575 (SRMLSC, 2007)
# The list shows a part of the results, in another mix than the full data. Active and inactive are the calls of the source.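 The calls were made as follows: active = viability at or below 30% in both replicate assays; inconclusive = viability at or below 30% in just one of the two assays; inactive = the rest.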
# Assay: HUVEC growth inhibition – cell-based, human, primary screen (AID 575);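 also: 100% = median of untreated cell wells with 0.1% DMSO on each plate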
# Settings: HUVEC proliferation, CellTiter-Glo luminescence, 72 h; at 10 µM; stronger effect = lower value
# In short: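 System – primary HUVEC, no more than 12 passages · Medium – Low-serum (2% FBS) EBM, supplemented · Times – 72 h exposure, 37 °C, 5% CO2, 30 min RT equilibration · Measured by – luminescent ATP assay · Read-out – % viability relative to median vehicle-well signal on each plate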
row,SMILES,viability
1,Fc1ccccc1NC1CCN(Cc2ccccc2)CC1,inactive: 103%
